This experiment addresses Recombinant human cathepsin S (CatS) (Homo sapiens, UniProt P25774). Briefly: biochemical.

Sequences of proteins named here, by UniProt entry; tags and fusion partners are left off. Residues count along the entry.
UniProt P25774, 115-331: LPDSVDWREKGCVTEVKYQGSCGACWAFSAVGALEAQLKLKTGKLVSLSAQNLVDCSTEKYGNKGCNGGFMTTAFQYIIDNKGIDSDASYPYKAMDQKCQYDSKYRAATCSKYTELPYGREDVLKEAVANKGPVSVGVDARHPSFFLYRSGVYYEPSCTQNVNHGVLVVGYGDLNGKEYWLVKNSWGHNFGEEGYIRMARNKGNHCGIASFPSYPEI

Broadly, the IC50 is the midpoint of a concentration-inhibition curve. In the case of `CS(=O)(=O)N1CCc2c(c(-c3ccc(C(F)(F)F)c(SCCN4CCC(F)CC4)c3)nn2CC(O)CN2CCC(Oc3ncccn3)CC2)C1` (stereo not drawn) [Example 798, 1-{3-[3-{[2-(4-Fluoropiperidin-1-yl)ethyl]sulfanyl}-4-(trifluoromethyl)phenyl]-5-(methylsulfonyl)-4,5,6,7-tetrahydro-1H-pyrazolo[4,3-c]pyridin-1-yl}-3-[4-(pyrimidin-2-yloxy)piperidin-1-yl]propan-2-ol], the IC50 worked out at 45 nM. The figure for `NC(=O)NC1CCN(CC(O)Cn2nc(-c3ccc(C(F)(F)F)c(SCCN4CCCCC4)c3)c3c2CCNC3)CC1` (stereo not drawn) [Example 320, 1-{1-[2-Hydroxy-3-(3-{3-[(2-piperidin-1-ylethyl)sulfanyl]-4-(trifluoromethyl)phenyl}-4,5,6,7-tetrahydro-1H-pyrazolo[4,3-c]pyridin-1-yl)propyl]piperidin-4-yl}urea] is 2260 nM; for `O=C(NC1CCCCC1)N1CCc2c(c(-c3ccc(C(F)(F)F)c(SCCN4CCC(F)CC4)c3)nn2C[C@@H](O)CN2CCCCC2)C1` [Example 630, N-Cyclohexyl-3-[3-{[2-(4-fluoropiperidin-1-yl)ethyl]sulfanyl}-4-(trifluoromethyl)phenyl]-1-[(2S)-2-hydroxy-3-piperidin-1-ylpropyl]-1,4,6,7-tetrahydro-5H-pyrazolo[4,3-c]pyridine-5-carboxamide] it is 270 nM. In the case of `CS(=O)(=O)N1CCc2c(c(-c3ccc(C(F)(F)F)c(SCC(=O)N4CCOCC4)c3)nn2CC(O)CN2CCC(NC(=O)CO)CC2)C1` (stereo not drawn) [Example 696, 2-Hydroxy-N-(1-{2-hydroxy-3-[5-(methylsulfonyl)-3-{3-[(2-morpholin-4-yl-2-oxoethyl)sulfanyl]-4-(trifluoromethyl)phenyl}-4,5,6,7-tetrahydro-1H-pyrazolo[4,3-c]pyridin-1-yl]propyl}piperidin-4-yl)acetamide], the IC50 came to 35 nM. In the case of `CCOc1ccccc1N1CCN(CC(O)Cn2nc(-c3ccc(C(F)(F)F)c(SCCN4CCCCC4)c3)c3c2CCN(S(C)(=O)=O)C3)CC1` (stereo not drawn) [Example 830, 1-{4-[2-(Ethyloxy)phenyl]piperazin-1-yl}-3-[5-(methylsulfonyl)-3-{3-[(2-piperidin-1-ylethyl)sulfanyl]-4-(trifluoromethyl)phenyl}-4,5,6,7-tetrahydro-1H-pyrazolo[4,3-c]pyridin-1-yl]propan-2-ol], the IC50 amounted to 25 nM. Regarding `CN(C)c1ccc2c(n1)n(C1CCN(CC(O)Cn3nc(-c4ccc(C(F)(F)F)c(SCCN5CCC(O)CC5)c4)c4c3CCN(S(C)(=O)=O)C4)CC1)c(=O)n2C` (stereo not drawn) [Example 173, 5-(Dimethylamino)-3-[1-(2-hydroxy-3-{3-[3-{[2-(4-hydroxypiperidin-1-yl)ethyl]sulfanyl}-4-(trifluoromethyl)phenyl]-5-(methylsulfonyl)-4,5,6,7-tetrahydro-1H-pyrazolo[4,3-c]pyridin-1-yl}propyl)piperidin-4-yl]-1-methyl-1,3-dihydro-2H-imidazo[4,5-b]pyridin-2-one], the IC50 amounted to 20 nM.

As to `CS(=O)(=O)N1CCc2c(c(-c3ccc(C(F)(F)F)c(SCC(=O)N4CC[C@@H](O)C4)c3)nn2CC(O)CN2CCN(c3ccc(F)cc3)CC2)C1` (stereo partly drawn) [Example 789, (3R)-1-[({5-[1-{3-[4-(4-Fluorophenyl)piperazin-1-yl]-2-hydroxypropyl}-5-(methylsulfonyl)-4,5,6,7-tetrahydro-1H-pyrazolo[4,3-c]pyridin-3-yl]-2-(trifluoromethyl)phenyl}sulfanyl)acetyl]pyrrolidin-3-ol], the IC50 came to 50 nM. For the compound `CS(=O)(=O)N1CCc2c(c(-c3ccc(C(F)(F)F)c(SCCNC4Cc5ccccc5C4)c3)nn2CCCN2CCC(N3CCCC3=O)CC2)C1` [Example 815, 1-[1-(3-{3-[3-{[2-(2,3-Dihydro-1H-inden-2-ylamino)ethyl]sulfanyl}-4-(trifluoromethyl)phenyl]-5-(methylsulfonyl)-4,5,6,7-tetrahydro-1H-pyrazolo[4,3-c]pyridin-1-yl}propyl)piperidin-4-yl]pyrrolidin-2-one], the half-maximal inhibitory concentration (IC50) stood at 290 nM. For the compound `CC(C)(C)OC(=O)NC1CCN(C(=O)CSc2cc(-c3nn(CCCN4CCC(N5CCCC5=O)CC4)c4c3CN(S(C)(=O)=O)CC4)ccc2C(F)(F)F)CC1` [Example 892, 1,1-Dimethylethyl {1-[({5-[5-(methylsulfonyl)-1-{3-[4-(2-oxopyrrolidin-1-yl)piperidin-1-yl]propyl}-4,5,6,7-tetrahydro-1H-pyrazolo[4,3-c]pyridin-3-yl]-2-(trifluoromethyl)phenyl}sulfanyl)acetyl]piperidin-4-yl}carbamate], the IC50 was determined as 75 nM.

Consider `CS(=O)(=O)N1CCc2c(c(-c3ccc(C(F)(F)F)c(SCCNC4CCCCC4)c3)nn2CCCN2CCC(N3CCCC3=O)CC2)C1` [Example 674, 1-[1-(3-{3-[3-{[2-(Cyclohexylamino)ethyl]sulfanyl}-4-(trifluoromethyl)phenyl]-5-(methylsulfonyl)-4,5,6,7-tetrahydro-1H-pyrazolo[4,3-c]pyridin-1-yl}propyl)piperidin-4-yl]pyrrolidin-2-one], for which the IC50 was found to be 180 nM. For the compound `CC(C)(O)C1CCN(CCSc2cc(-c3nn(C[C@@H](O)CN4CCOCC4)c4c3CN(S(C)(=O)=O)CC4)ccc2C(F)(F)F)CC1` [Example 227, (2S)-1-{3-[3-({2-[4-(1-Hydroxy-1-methylethyl)piperidin-1-yl]ethyl}sulfanyl)-4-(trifluoromethyl)phenyl]-5-(methylsulfonyl)-4,5,6,7-tetrahydro-1H-pyrazolo[4,3-c]pyridin-1-yl}-3-morpholin-4-ylpropan-2-ol], the concentration for half-maximal inhibition (IC50) worked out at 1130 nM.

With `COc1ccccc1C1CCN(CC(O)Cn2nc(-c3ccc(C(F)(F)F)c(SCCN4CCCCC4)c3)c3c2CCN(S(C)(=O)=O)C3)CC1` (stereo not drawn) [Example 770, 1-{4-[2-(Methyloxy)phenyl]piperidin-1-yl}-3-[5-(methylsulfonyl)-3-{3-[(2-piperidin-1-ylethyl)sulfanyl]-4-(trifluoromethyl)phenyl}-4,5,6,7-tetrahydro-1H-pyrazolo[4,3-c]pyridin-1-yl]propan-2-ol], the IC50 amounted to 10 nM. For the compound `CS(=O)(=O)N1CCc2c(c(-c3ccc(C(F)(F)F)c(SCCN4CCC(O)CC4)c3)nn2CC(O)CN2CCC(N3CCCC3)CC2)C1` (stereo not drawn) [Example 688, 1-(2-{[5-{1-[2-Hydroxy-3-(4-pyrrolidin-1-ylpiperidin-1-yl)propyl]-5-(methylsulfonyl)-4,5,6,7-tetrahydro-1H-pyrazolo[4,3-c]pyridin-3-yl}-2-(trifluoromethyl)phenyl]sulfanyl}ethyl)piperidin-4-ol], the IC50 is 580 nM. Under `CS(=O)(=O)N1CCc2c(c(-c3ccc(C(F)(F)F)c(SCCN4CCOCC4)c3)nn2CC(O)CN2CCC(c3ccccn3)CC2)C1` (stereo not drawn) [Example 182, 1-[5-(Methylsulfonyl)-3-{3-[(2-morpholin-4-ylethyl)sulfanyl]-4-(trifluoromethyl)phenyl}-4,5,6,7-tetrahydro-1H-pyrazolo[4,3-c]pyridin-1-yl]-3-(4-pyridin-2-ylpiperidin-1-yl)propan-2-ol] stands 30 nM; under `CS(=O)(=O)N1CCc2c(c(-c3ccc(C(F)(F)F)c(SCCN4CCCCC4)c3)nn2CCCN2CCCC2)C1` [Example 57, 5-Methanesulfonyl-3-[3-(2-piperidin-1-yl-ethylsulfanyl)-4-trifluoromethyl-phenyl]-1-(3-pyrrolidin-1-yl-propyl)-4,5,6,7-tetrahydro-1H-pyrazolo[4,3-c]pyridine], 520 nM. Consider `CC1CCN(CC(O)Cn2nc(-c3ccc(C(F)(F)F)c(SCCN4CCC(F)CC4)c3)c3c2CCN(S(C)(=O)=O)C3)CC1` (stereo not drawn) [Example 473, 1-{3-[3-{[2-(4-Fluoropiperidin-1-yl)ethyl]sulfanyl}-4-(trifluoromethyl)phenyl]-5-(methylsulfonyl)-4,5,6,7-tetrahydro-1H-pyrazolo[4,3-c]pyridin-1-yl}-3-(4-methylpiperidin-1-yl)propan-2-ol], for which the IC50 is 150 nM. Consider `CS(=O)(=O)N1CCc2c(c(-c3ccc(C(F)(F)F)c(SCCN4CCCC(F)C4)c3)nn2C[C@@H](O)CN2CCC(C3CCCCC3)CC2)C1` (stereo partly drawn) [Example 757, (2S)-1-(4-Cyclohexylpiperidin-1-yl)-3-{3-[3-{[2-(3-fluoropiperidin-1-yl)ethyl]sulfanyl}-4-(trifluoromethyl)phenyl]-5-(methylsulfonyl)-4,5,6,7-tetrahydro-1H-pyrazolo[4,3-c]pyridin-1-yl}propan-2-ol], for which the IC50 worked out at 15 nM. On to `CS(=O)(=O)N1CCc2c(c(-c3ccc(C(F)(F)F)c(SCCN4CCC(F)CC4)c3)nn2C[C@@H](O)CN2CCCCC2CO)C1` (stereo partly drawn) [Example 570, (2S)-1-{3-[3-{[2-(4-Fluoropiperidin-1-yl)ethyl]sulfanyl}-4-(trifluoromethyl)phenyl]-5-(methylsulfonyl)-4,5,6,7-tetrahydro-1H-pyrazolo[4,3-c]pyridin-1-yl}-3-[2-(hydroxymethyl)piperidin-1-yl]propan-2-ol], for which the IC50 was determined as 640 nM. Turning to `CN(C)C(=O)CSc1cc(-c2nn(CCCN3CCC(N4CCCC4=O)CC3)c3c2CN(S(C)(=O)=O)CC3)ccc1C(F)(F)F` [Example 85, 2-[5-(5-Methanesulfonyl-1-{3-[4-(2-oxo-pyrrolidin-1-yl)-piperidin-1-yl]-propyl}-4,5,6,7-tetrahydro-1H-pyrazolo[4,3-c]pyridin-3-yl)-2-trifluoromethyl-phenylsulfanyl]-N,N-dimethyl-acetamide], the IC50 stood at 520 nM. With `CS(=O)(=O)N1CCc2c(c(-c3ccc(C(F)(F)F)c(SCC(=O)NCc4ccccc4)c3)nn2CCCN2CCC(N3CCCC3=O)CC2)C1` [Example 102, N-Benzyl-2-[5-(5-methanesulfonyl-1-{3-[4-(2-oxo-pyrrolidin-1-yl)-piperidin-1-yl]-propyl}-4,5,6,7-tetrahydro-1H-pyrazolo[4,3-c]pyridin-3-yl)-2-trifluoromethyl-phenylsulfanyl]-acetamide], the IC50 is 370 nM. For the compound `O=c1[nH]nc(C2CCN(CC(O)Cn3nc(-c4ccc(C(F)(F)F)c(SCCN5CCCCC5)c4)c4c3CCNC4)CC2)[nH]1` (stereo not drawn) [Example 357, 5-{1-[2-Hydroxy-3-(3-{3-[(2-piperidin-1-ylethyl)sulfanyl]-4-(trifluoromethyl)phenyl}-4,5,6,7-tetrahydro-1H-pyrazolo[4,3-c]pyridin-1-yl)propyl]piperidin-4-yl}-2,4-dihydro-3H-1,2,4-triazol-3-one], the IC50 was found to be 2700 nM.

The values above are taken from US20090099157A1, “TETRAHYDRO-PYRAZOLO-PYRIDINE THIOETHER MODULATORS OF CATHEPSIN S” (priority 2007, published 2009).
